Laboratory results taken from paper PMC8691691 (ACS Chemical Neuroscience, 2021).
Substitutions are numbered along the chain they refer to.

Experiments:
GlyT2 A639C mutant = target: T1, GlyT2 A639C mutant (Rattus norvegicus, UniProt P58295, A639C); experiment: [3H]glycine transport by GlyT2 mutant in COS7 cells; type: cell-based
T1 construct: expressed in transfected cells; host or cells: COS7
T1 sequence (P58295 1-799 A639C): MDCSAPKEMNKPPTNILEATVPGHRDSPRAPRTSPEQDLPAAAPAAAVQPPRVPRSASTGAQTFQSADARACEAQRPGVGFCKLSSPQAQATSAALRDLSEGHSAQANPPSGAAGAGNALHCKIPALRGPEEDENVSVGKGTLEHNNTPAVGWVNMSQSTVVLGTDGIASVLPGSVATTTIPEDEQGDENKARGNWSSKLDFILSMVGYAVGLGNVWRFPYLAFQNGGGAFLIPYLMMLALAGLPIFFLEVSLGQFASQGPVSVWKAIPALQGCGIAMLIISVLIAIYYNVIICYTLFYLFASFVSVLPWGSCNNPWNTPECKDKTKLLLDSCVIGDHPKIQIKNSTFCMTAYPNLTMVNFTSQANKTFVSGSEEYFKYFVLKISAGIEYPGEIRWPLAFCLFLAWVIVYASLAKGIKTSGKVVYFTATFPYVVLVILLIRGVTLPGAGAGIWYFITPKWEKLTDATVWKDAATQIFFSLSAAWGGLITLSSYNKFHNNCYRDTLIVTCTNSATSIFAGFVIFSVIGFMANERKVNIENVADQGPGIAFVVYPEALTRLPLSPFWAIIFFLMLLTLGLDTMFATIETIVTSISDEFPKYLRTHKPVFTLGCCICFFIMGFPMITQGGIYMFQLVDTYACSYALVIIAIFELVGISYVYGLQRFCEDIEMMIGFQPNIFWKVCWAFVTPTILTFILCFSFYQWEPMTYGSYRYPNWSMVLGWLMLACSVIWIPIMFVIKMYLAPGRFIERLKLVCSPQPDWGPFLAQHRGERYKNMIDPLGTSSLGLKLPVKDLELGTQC

GlyT2 T580C mutant = target: T2, GlyT2 T580C mutant (Rattus norvegicus, UniProt P58295, T580C); experiment: as above; type: cell-based
T2 construct: expressed in transfected cells; host or cells: COS7
T2 sequence (P58295 1-799 T580C): T1 sequence (P58295 1-799 A639C) with T580C, C639A

**Q.** NCC(=O)O [Gly, glycine] was tested. Which EC50 (GlyT2 A639C mutant) did it give?
**A.** Its EC50 is 176 ± 14 µM.

**Q.** And the EC50 (GlyT2 T580C mutant)?
**A.** Its EC50 is 600 ± 81 µM.
